Where two headings read alike, the source gives them in different places.
Target: recombinant active human PAI-1 (Homo sapiens, UniProt P05121)
Experiment: PAI-1 inhibitory activity against uPA (fluorogenic uPA substrate)
Assay type: biochemical
Conditions: read-out: IC50 for inhibiting the activity of PAI-1 against uPA
Description: The activity of the small molecule PAI-1 inhibitors against PAI-1 was analyzed as previously described. Briefly, recombinant active human PAI-1 was incubated at 2 nM for 15 min at 23°C with increasing concentrations of each compound in assay buffer (40 mM HEPES, pH 7.4, 100 mM NaCl, 0.005% Tween 20, 0.1% DMSO), or in assay buffer contain 50 nM vitronectin or 10% human PAI-1-depleted plasma followed by the addition of uPA (Innovative Research), and further incubated for 30 min at 23°C. At each drug concentration, parallel control reactions without PAI-1 were assembled. Residual enzymatic activity was determined by addition of an equal volume of 100 μM Z-Gly-Gly-Arg-AMC (Calbiochem) fluorogenic uPA substrate, and the rate of AMC release monitored at 23°C (excitation 370 nm and emission 440 nm). The percent change in PAI-1 activity was determined according to Eq. 1: [(Ei – Pi) / Ei] / [(E0 - P0) / E0], where Ei is the enzyme activity at drug concentration i; Pi is the enzyme activity in the presence of PAI-1 at drug concentration i; E0 is the enzyme activity in the absence of drug; and P0 is the enzyme activity in the presence of PAI-1 but in the absence of drug. Data were then plotted as the residual PAI-1 activity as a percentage of the control PAI-1 activity vs. compound concentration and from these curves the IC50 of each compound was calculated.

By UniProt entry, the sequences of proteins in these tests, tags left out. Residues count along the entry.
UniProt P05121, 24-402: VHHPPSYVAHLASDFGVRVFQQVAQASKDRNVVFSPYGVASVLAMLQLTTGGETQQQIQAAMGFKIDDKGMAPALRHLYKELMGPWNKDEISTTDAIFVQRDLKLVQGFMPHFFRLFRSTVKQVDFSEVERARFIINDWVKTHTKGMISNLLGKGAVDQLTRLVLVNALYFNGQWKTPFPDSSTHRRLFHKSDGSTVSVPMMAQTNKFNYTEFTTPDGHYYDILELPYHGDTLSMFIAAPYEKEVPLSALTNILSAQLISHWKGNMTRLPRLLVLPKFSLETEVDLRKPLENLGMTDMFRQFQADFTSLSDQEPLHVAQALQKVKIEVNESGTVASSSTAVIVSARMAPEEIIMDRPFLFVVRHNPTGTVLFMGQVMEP

Compound: O=C(O)C(=O)c1cn(Cc2ccccc2)c2ccc(-c3ccc(OC(F)(F)F)cc3)cc12 [Tiplaxtinin]
- IC50 (buffer containing 10% human PAI-1-depleted plasma): 2000 µM
- IC50 (buffer with 50 nM purified human vitronectin): 583 µM
- IC50 (in buffer alone): 22 µM

Reference: publication PMC12393591, “Targeting Plasminogen Activator Inhibitor-1 with a Novel Small Molecule Inhibitor Attenuates Lung Fibrosis” (Research Square, 2025)
